US20140360376A1, “RECOVERY OF HIGHER ALCOHOLS FROM DILUTE AQUEOUS SOLUTIONS” (GEVO, INC., priority 2007, published 2014)

Legend:
[1] = Phase separation of 4% butanol or isobutanol solutions by addition of calcium chloride; format: physicochemical; settings: 4% alcohol, calcium chloride 15% (w/w), 25° C.
Experimental: This example illustrates the induction of phase separation of butanol or isobutanol in water solutions by calcium chloride addition. […] The light and heavy phases were analyzed for alcohol content for each experiment. All experiments were carried out at 25° C. The distribution coefficient was calculated by division of the concentration of butanol in the light phase by the concentration of butanol in the heavy phase.

[2] = Phase separation of 7% butanol or isobutanol solutions by addition of glucose; format: physicochemical; settings: 7% alcohol, glucose 20% (w/w), 25° C.
Experimental: This example illustrates the induction of phase separation of butanol or isobutanol in water solutions by addition of glucose. […] The light and heavy phases were analyzed for alcohol content for each experiment. All experiments were carried out at 25° C. The distribution coefficient was calculated by division of the concentration of butanol in the light phase by the concentration of butanol in the heavy phase.

[3] = n-butanol-water, cited from earlier work
[4] = Enrichment by calcium chloride addition followed by contact with gasoline; format: physicochemical
Experimental: (§1) These solutions were then mixed with gasoline. The gasoline used was commercial grade with a 95 octane rating. At equilibrium, phase separation was observed, forming an upper alcohol rich phase (light phase) and a lower alcohol lean phase (heavy phase). Both phases were analyzed for alcohol and water contents. The distribution coefficient of the alcohol was calculated for each experiment by dividing the alcohol concentration in the light phase by the concentration in the heavy phase. All experiments were carried out at 24° C.

[5] = Enrichment of C3-C6 alcohols from aqueous solutions by contact with octane; format: physicochemical; settings: 24° C., equilibrium
Experimental: Several aqueous solutions were prepared for each alcohol, differing in their alcohol concentrations, all of which were sub-saturated. […] The phase ratio between the aqueous solution and the solvent differed from one case to the other. Mixing was continued until equilibrium was reached. At equilibrium, phase separation could be observed forming an upper, alcohol-rich phase (light phase) and a lower, alcohol-lean phase (heavy phase). Both phases were analyzed for alcohol and water content. […] The water content of the organic phases was determined by the Karl-Fischer method. These analytical methods were also used for the analyses in the other examples.
The distribution coefficient of the alcohol was calculated for each experiment by dividing the alcohol concentration in the light phase by the alcohol concentration in the heavy phase. Similarly, the distribution coefficient for water was calculated by dividing the water concentration in the light phase by the water concentration in the heavy phase. The enrichment factor was calculated by dividing the distribution coefficient of alcohol by the distribution coefficient of water. In addition, the alcohol to water ratio (w/w) was calculated for the light phase.

[6] = Enrichment by glucose addition followed by contact with gasoline; format: physicochemical
Experimental: as §1, with “observed” for “observed,”, “content.” for “contents.”, “phase. The distribution coefficient for water was calculated accordingly. The Enrichment factor was calculated by dividing the distribution coefficient of alcohol by the distribution coefficient of water.” for “phase.”

[7] = Enrichment of C3-C6 alcohols from aqueous solutions by contact with gasoline; format: physicochemical; settings: 24° C.
Experimental: The gasoline used was commercial grade with a 95 octane rating. […] Both phases were analyzed for alcohol and water content. The distribution coefficient of the alcohol was calculated for each experiment by dividing the alcohol concentration in the light phase by the concentration in the heavy phase. Similarly, the distribution coefficient for water was calculated by dividing the water concentration in the light phase by the water concentration in the heavy phase. The enrichment factor was calculated by dividing the distribution coefficient of alcohol by the distribution coefficient of water. All experiments were carried out at 24° C.

[8] = gasoline, 15% (w/w) calcium chloride, 24° C.
[9] = gasoline, 20% (w/w) glucose, 24° C.

1-butanol [BuOH]
Alcohol in heavy phase (% w/w) [1]: 2.3 % w/w
Alcohol in light phase (% w/w) [1]: 90 % w/w
Concentration in the light phase compared to the starting solution [1]: approximately 23 fold
Distribution coefficient ([1]; light/heavy phase): 39
Alcohol in heavy phase (% w/w) [2]: 4.3 % w/w
Alcohol in light phase (% w/w) [2]: 85 % w/w
Concentration in the light phase compared to the starting solution [2]: approximately 12 fold
Distribution coefficient ([2]; light/heavy phase): 20
Butanol Wt % in heavy phase ([3]; 5° C.): 9.55 Wt %
Butanol Wt % in light phase ([3]; 5° C.): 80.38 Wt %
Butanol Wt % in heavy phase ([3]; 10° C.): 8.91 Wt %
Butanol Wt % in light phase ([3]; 10° C.): 80.33 Wt %
Butanol Wt % in heavy phase ([3]; 15° C.): 8.21 Wt %
Butanol Wt % in light phase ([3]; 15° C.): 80.14 Wt %
Butanol Wt % in heavy phase ([3]; 20° C.): 7.81 Wt %
Butanol Wt % in light phase ([3]; 20° C.): 79.93 Wt %
Butanol Wt % in heavy phase ([3]; 25° C.): 7.35 Wt %
Butanol Wt % in light phase ([3]; 25° C.): 79.73 Wt %
Butanol Wt % in heavy phase ([3]; 30° C.): 7.08 Wt %
Butanol Wt % in light phase ([3]; 30° C.): 79.38 Wt %
Butanol Wt % in heavy phase ([3]; 35° C.): 6.83 Wt %
Butanol Wt % in light phase ([3]; 35° C.): 78.94 Wt %
Butanol Wt % in heavy phase ([3]; 40° C.): 6.6 Wt %
Butanol Wt % in light phase ([3]; 40° C.): 78.59 Wt %
Butanol Wt % in heavy phase ([3]; 50° C.): 6.46 Wt %
Butanol Wt % in light phase ([3]; 50° C.): 77.58 Wt %
Butanol Wt % in heavy phase ([3]; 60° C.): 5.62 Wt %
Butanol Wt % in light phase ([3]; 60° C.): 76.38 Wt %
Butanol Wt % in heavy phase ([3]; 70° C.): 6.73 Wt %
Butanol Wt % in light phase ([3]; 70° C.): 74.79 Wt %
Butanol Wt % in heavy phase ([3]; 80° C.): 6.89 Wt %
Butanol Wt % in light phase ([3]; 80° C.): 73.53 Wt %
Increase of alcohol concentration in the gasoline phase in the presence of calcium chloride ([4]; compared with example 3 (no calcium chloride)): 3 fold
Alcohol Wt % in heavy phase [4, 8]: 0.86 Wt %
Alcohol Wt % in light phase [4, 8]: 2.6 Wt %
Alcohol Da ([4]; light/heavy phase, gasoline, 15% (w/w) calcium chloride, 24° C.): 3.0
Alcohol Wt % in heavy phase [5]: 4.6 Wt % and 0.65 Wt % and 1.8 Wt %
Alcohol Wt % in light phase [5]: 2.5 Wt % and 0.11 Wt % and 0.29 Wt %
Increase of alcohol concentration in the gasoline phase in the presence of glucose ([6]; compared with example 3 (no glucose)): 1.6 fold
Alcohol Wt % in heavy phase [6, 9]: 1.5 Wt %
Alcohol Wt % in light phase [6, 9]: 1.9 Wt %
Alcohol Da ([6]; light/heavy phase, gasoline, 20% (w/w) glucose, 24° C.): 1.27
Alcohol Wt % in heavy phase ([7]; equilibrium): 3.8 Wt % and 0.55 Wt % and 1.64 Wt %
Alcohol Wt % in light phase ([7]; equilibrium): 7.3 Wt % and 0.34 Wt % and 1.27 Wt %
Enrichment factor ([7]; Da/Dw): 540 and >1000 and 770

Values joined by “and” are separate entries in the source; they are usually repeats but may differ in a detail not shown here. Identical values can stand only once. Like-named read-outs stand apart in the source and are kept apart here.
